## Antibody variant affinities, Ab-14 light chain, assay 1

The target is the same throughout: PDVDLGDISGINAS, from the HR2 region of SARS-CoV-2 spike.

Ab-14 is the parent antibody, in scFv form: VH, then three GGGGS repeats, then VL. The heavy chain is unchanged in all variants.
VH: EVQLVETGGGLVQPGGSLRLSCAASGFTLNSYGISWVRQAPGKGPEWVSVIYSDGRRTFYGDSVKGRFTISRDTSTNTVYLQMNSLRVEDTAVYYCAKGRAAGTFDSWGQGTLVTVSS
VL: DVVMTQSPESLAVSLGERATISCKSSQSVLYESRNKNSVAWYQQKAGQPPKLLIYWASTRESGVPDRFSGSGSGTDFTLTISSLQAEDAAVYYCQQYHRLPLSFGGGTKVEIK

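The starting antibody came from a phage panning campaign against this peptide. The library (AAYL50) carries one to three amino acid substitutions per variant, with no insertions or deletions. The scFvs were displayed on barcoded MATa yeast, the peptide on MATalpha yeast. After mating in shaken culture at 30 °C for 16 h, diploids were selected and their barcode pairs sequenced. Scores were corrected for input abundance and mapped to Kd with protein pairs of known affinity run in the same pool. The assay was run in three technical replicates.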

Variants are written as CDR1, CDR2 and CDR3 of the light chain (limits as in the source). Parent: KSSQSVLYESRNKNSVA, WASTRES, QQYHRLPLS. Values are apparent Kd, the geometric mean of the replicates that gave a signal; lower means stronger binding. An entry "not detected" has no value in the source: the pair was not observed among the diploids in any replicate. This suggests poor binding but is not conclusive. Background: pairings of library AAYL50 with three empty control strains gave a value in 18% of cases (median 15 µM, 5th percentile 970 nM). Values in that range, when seen in few replicates, are hard to tell from nonspecific mating. Also given: how often the same scFv was detected with the empty control strains. In this assay the parent's reference entry averaged 4.4 nM; its copy inside this library read 48 nM.

CDR-L1,CDR-L2,CDR-L3,apparent Kd,detected,signal with controls
KSSQSVLHESRNKNSVI,WASTRES,QQYHRLPNS,22 µM,1 of 3,4 of 9
SSSQSVLYESRNKNSVA,WAVTRSS,QQYHRLPLS,1.1 µM,3 of 3,0 of 9
KDSQSVLYESRNKNSVA,WASTRET,QQYHGLPLS,1.1 µM,3 of 3,3 of 9
KSHQSVVYESRNKNSVA,WASTRES,QQYHRLHLS,not detected,0 of 3,0 of 9
DCMQSVLYESRNKNSVA,WASTRES,QQYHRLPLS,990 nM,3 of 3,4 of 9
KSSWSVFYEMRNKNSVA,WASTRES,QQYHRLPLS,110 nM,3 of 3,2 of 9
KLSQSVLYESRNKNSVA,WLSTLES,QQYHRLPLS,210 µM,1 of 3,1 of 9
KSSQSVLYESMNKFSVA,WASMRES,QQYHRLPLS,14 nM,3 of 3,2 of 9
KSSQSVLHEFRNKNSVA,WASTRES,QQYHYLPLS,97 nM,3 of 3,1 of 9
KSSYSVLYESRNKNSVA,WASTQES,QQYHREPLS,200 µM,3 of 3,3 of 9
KSSQSVLCESRNKNSYA,WAFTRES,QQYHRLPLS,not detected,0 of 3,0 of 9
KLSGSVLYESRNKNRVA,WASTRES,QQYHRLPLS,5.7 nM,3 of 3,0 of 9
KSSQSVLYEYRNINSVA,WASTRES,QQYHRLPLS,28 nM,3 of 3,0 of 9
KSSFSVLYLSRNKNSVA,WASTRES,QQIHRLPLS,130 nM,3 of 3,0 of 9
KSSFSVLYESRNKNSVA,WASTREC,VQYHRLPLS,not detected,0 of 3,0 of 9
KSSQSVLYESRNKNSVD,WASTREG,QQYWRLPLS,not detected,0 of 3,1 of 9
KSSQHVLYESRNKNSVA,WFSTRES,QQVHRLPLS,not detected,0 of 3,2 of 9
YSIQSVLYESRNKNSVA,WASTVES,QQYHRLPLS,not detected,0 of 3,2 of 9
KSSQFVLYESRNKNSVS,WASTRES,QIYHRLPLS,not detected,0 of 3,1 of 9
KSSQSVLYESRNKNSVA,WASTMES,KDYHRLPLS,22 µM,1 of 3,3 of 9
KSSQSVLYESRNKNSVK,WASTRED,QQYHRLPLS,2.4 µM,1 of 3,2 of 9
KLSQSVLYESRNKNSCA,WASTRES,QQYFRLPLS,130 nM,3 of 3,0 of 9
KSSQSVLYESRNKNSVA,WAQTRES,QQYHRLPLC,7.1 nM,3 of 3,1 of 9
KSSQSVLYESRNKNSVA,LASTRES,QVYHREPLS,14 µM,1 of 3,1 of 9
KSSQSVLYESANKNSVA,WAGTRES,QQYHRLPIS,21 nM,3 of 3,1 of 9

The remaining entries, values ahead:

apparent Kd,detected,signal with controls,CDR-L1,CDR-L2,CDR-L3
550 nM,3 of 3,1 of 9,KSSQSVLHEMRNKNSVV,WASTRES,QQYHRLPLS
17 nM,3 of 3,1 of 9,KSSQSVLYEYVNKNSVA,WASTRES,QQYHRLPLS
8.3 nM,3 of 3,1 of 9,KQSQSVLYETRNLNSVA,WASTRES,QQYHRLPLS
not detected,0 of 3,2 of 9,KSSQSVLYESRNKNSVA,WRPTRES,QQYHRLPLS
not detected,0 of 3,2 of 9,KSSQGVLYESRNKQSVA,WASTGES,QQYHRLPLS
24 nM,3 of 3,3 of 9,KSSQSVLYESRNKNSVA,WASTRES,YQRHRLFLS
not detected,0 of 3,1 of 9,KSSQSVLYESRNKNPVA,FAFTRES,QQYHRLPLS
not detected,0 of 3,6 of 9,KSSQSVLYESRKKNSVA,WISTRES,QQYSRLPLS
1.2 µM,3 of 3,0 of 9,WSSQSVLYESRNKNSVA,WASTRLS,QQYHRLPRS
1.2 nM,3 of 3,4 of 9,KSSQSVLYESRNKNSVA,NHSIRES,QQYHRLPLS
4.1 µM,1 of 3,0 of 9,KSSQSVLYESREKNSVP,WASTRES,QQYHRLPES
45 nM,3 of 3,2 of 9,KSMQSDLYESRNKGSVA,WASTRES,QQYHRLPLS
360 µM,3 of 3,3 of 9,KSSQSVLYEFRNKNSVA,WASTRES,QQYHPLPLS
70 µM,2 of 3,2 of 9,KSPQSVLYESRNKNSVA,WNSTRES,QQYHRLQLS
38 nM,3 of 3,0 of 9,KSSQSNLYESRNKNSVA,WASTRES,DYYHRLPLS
8.8 µM,2 of 3,3 of 9,KSSQSPLYESRNKNSVA,WASTRES,QQYHRFPAS
12 µM,2 of 3,0 of 9,KSSVSVLHESRNKNSVA,WASTRES,QQLHRLPLS
not detected,0 of 3,1 of 9,KSSQSVLYESRNTNSVW,WASTRES,QQYMRLPLS
33 µM,1 of 3,2 of 9,KSSQSVLKESRNKNSVA,WASTRES,QSMHRLPLS
69 nM,3 of 3,2 of 9,KSSQSVLYESRNKNSVA,CASTRQS,QQYHRLQLS
not detected,0 of 3,0 of 9,KSSYSVLYESRNKNSVA,WASTRES,MQYHRLRLS
420 nM,3 of 3,9 of 9,KSSQSVLYESRQKNSVA,WASTRES,QQYHRDPLD
5.8 µM,1 of 3,0 of 9,KSSQSWLYESRDKNSVA,WASTRES,QQYHRGPLS
130 µM,2 of 3,1 of 9,KSSQSVDYESRQKNSVA,WASTRES,QQYHRLGLS
65 nM,3 of 3,3 of 9,KSSQRVLYESQNKNSVA,WAVTRES,QQYHRLPLS
43 nM,3 of 3,1 of 9,KSSQMKLYESRNKNSVA,WASTRES,QQYHRLPLE

Reference: Engelhart et al. 2022, doi:10.1038/s41597-022-01779-4. File: FLAb, binding data.